# Earlier results in patent US9980972B2, “Rho kinase inhibitors for use in treating familial amyotrophic lateral sclerosis” (GEORG-AUGUST-UNIVERSITÄT GÖTTINGEN STIFTUNG ÖFFENTLICHEN …, priority 2012, dated 2018).
# Settings: cited from earlier work
compound,measurement,value
Nc1nc2ccc(OC(F)(F)F)cc2s1 [Riluzole],"liver damage, share of people taking the drug",~10%
